# Assay results from patent US8906897B2, “Antimicrobial agents based on hemin derivatives” (Obschestvo S Ogranichennoi Otvetstvennostiyu …, priority 2009, dated 2014).
# System: erythrocytes
# Assay: Hemolytic activity (hemoglobin release from erythrocytes)
# Assay type: cell-based
# Conditions: human erythrocytes, 3 h
# Procedure: Fresh human capillary blood was used in hemolytic activity studies. The hemolysis efficacy was determined as the hemoglobin release from erythrocytes in the RPMI-1640 medium (without Phenol Red and with addition of 10% fetal bovine serum and 20 mM L-glutamine) for an initial erythrocyte density of (1.0±0.1)×10^7 cells/mL after 3-h incubation with an agent (37° C., 5% CO2, 100% humidity, stirring on an orbital shaker).
# The hemolytic activity was characterized by the hemoglobin fraction released from erythrocytes to the external medium. Erythrocytes, erythrocyte ghosts, and intermediate species containing unreleased hemoglobin were separated by centrifugation. Hemoglobin was quantified by the absorption of the supernatant at a wavelength of 414 nm (near the Soret band maximum for the heme).
# Inasmuch as all tested compounds except for GrD absorb light at this wavelength, a correction for the absorption of each compound with account for its concentration was applied in calculating the hemoglobin release fraction. The percent hemoglobin release (HR) was calculated from the optical density (A) measured at a wavelength of 414 nm using the equation HR=[(Aei−Ae0)−(Ami−Am0)]×100/(Aet−Ae0), (2) […]
# All samples (except for the positive control) were incubated for 3 h at 37° C., 5% CO2, 100% humidity, and under stirring at 150 rpm. […] The hemoglobin release was calculated from relationship (2).
substance,measurement,value
Protohemin IX 6(7)-Mono(-Val-Gly-Ala-D-Leu-Ala-D-Val-Val-D-Val-Trp-D-Leu-X-D-Leu-Trp-D-Leu-Trp-NH—CH2CH2OH)amide [Compound XII],concentration until which hemolytic activity is not manifested,100 µM
